# Data as given in PubChem BioAssay AID1021 (Emory University Molecular Libraries Screening Center, 2008).
# Chains of the proteins cited; added tags and fusions are not shown.
# UniProt Q07820, whole entry, looked up: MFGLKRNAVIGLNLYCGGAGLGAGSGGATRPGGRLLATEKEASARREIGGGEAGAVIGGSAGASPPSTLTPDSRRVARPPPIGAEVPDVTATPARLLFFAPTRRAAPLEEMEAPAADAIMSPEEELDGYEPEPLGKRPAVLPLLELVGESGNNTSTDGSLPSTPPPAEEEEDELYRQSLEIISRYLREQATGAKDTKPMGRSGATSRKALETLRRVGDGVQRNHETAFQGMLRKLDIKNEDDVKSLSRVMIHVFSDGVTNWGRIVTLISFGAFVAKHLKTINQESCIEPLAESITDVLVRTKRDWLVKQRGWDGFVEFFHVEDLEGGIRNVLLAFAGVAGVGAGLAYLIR
# Only a part is listed here, and it is no random draw. Active and inactive are the calls of the source.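 The calls were made as follows: active = compounds that cut the binding signal by more than half at the single screening dose; inactive = the rest.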
# Molecular target: Induced myeloid leukemia cell differentiation protein Mcl-1 (Homo sapiens) (UniProt Q07820)
# Assay: disruptors of Mcl-1 and Bid BH3 peptide – biochemical, TR-FRET, 1536-well, primary screen (AID 1021);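 also: His-tagged Mcl-1 with europium anti-His antibody binding Bid BH3 peptide; 0% = Mcl-1 plus peptide wells and 100% = peptide-only wells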
# Settings: TR-FRET Mcl-1/Bid-Dy647 peptide binding, at 21.7 µM, hits give high values
row,SMILES,inhibition
1,O=P1(Nc2ncccn2)COc2ccccc2OC1,inactive: -4.15%
2,O=C(/C=C/c1ccccc1)OC1CN2CCC1CC2 (stereo not given),inactive: 5.27%
3,CN(C)C1(CNC(=O)c2ccc(S(C)(=O)=O)cc2)CCCCC1,inactive: -5.17%
4,CC1CCC(C(C)C)C(OP(=O)(Nc2ccccn2)c2ccccc2)C1 (stereo not given),inactive: -14.8%
5,Cc1nn(-c2ccccc2)c2c1P(=O)(N1CCOCC1)N(C)C(c1ccccc1)=N2 (stereo not given),inactive: -2.36%
6,O=[N+]([O-])c1ccc2c(c1)nnn2O,inactive: 12%
7,CCOP1(=S)c2c(C)nn(CCC#N)c2N=C(c2ccc(F)cc2)N1C (stereo not given),inactive: -7.21%
8,CN(C(=O)Cc1ccccc1)[C@@H]1CC[C@]2(CCCO2)C[C@H]1N1CCCC1,inactive: -32.7%
9,NC(=O)Nc1ccc([As](=O)(O)O)cc1,inactive: -25.2%
10,Nc1ccccc1[As](=O)(O)c1ccccc1,inactive: -0.67%
11,O=C(O)COc1ccc([As](=O)(O)O)cc1[N+](=O)[O-],inactive: 14.6%
12,CS(=O)(=O)c1cc([N+](=O)[O-])c2no[n+]([O-])c2c1,inactive: 33.1%
13,O=P(Nc1nccs1)(Oc1ccccc1)Oc1ccccc1,inactive: -24.1%
14,O=P(Nc1nccs1)(c1ccccc1)c1nc2ccccc2s1 (stereo not given),inactive: -5.48%
15,CCOP1(=S)c2c(C)nn(CCC#N)c2N=C(c2ccccc2F)N1C (stereo not given),inactive: -4.22%
16,CCOP(=O)(Nc1cccc2ccccc12)OCC,inactive: -0.84%
17,COc1cc(C2NCCC3(OCCO3)C2(C)C)cc(OC)c1OC (stereo not given),inactive: -14.2%
18,CCCOP(=S)(Nc1nc(N)cc(=O)[nH]1)OCCC,inactive: -106%
19,Cc1ccc(NCCc2c([N+](=O)[O-])cc([N+](=O)[O-])cc2[N+](=O)[O-])cc1,inactive: -65.5%
20,Nc1cccc2c([As](=O)(O)O)cccc12,inactive: -20.9%
21,Cc1cccc(OCC(=O)OC2CN3CCC2CC3)c1 (stereo not given),inactive: 3.15%
22,O=[As](O)(c1cccc(O)c1)c1cccc(O)c1,inactive: -21.4%
23,O=[As](O)(O)c1cccnc1,inactive: -1.81%
24,COc1cc(C(=O)NCC2(N3CCOCC3)CCCCC2)cc(Cl)c1OC(C)C,inactive: -21.2%
25,O=C(OC1CN2CCC1CC2)c1ccc(Cl)cc1 (stereo not given),inactive: -5.32%
